Molecular target: factor VIII of a pool of normal plasma (human) (UniProt P00451)
Assay: cell-based or functional assay

By UniProt entry, the sequences of proteins in these tests, tags left out. Residues count along the entry.
UniProt P00451, 20-2351: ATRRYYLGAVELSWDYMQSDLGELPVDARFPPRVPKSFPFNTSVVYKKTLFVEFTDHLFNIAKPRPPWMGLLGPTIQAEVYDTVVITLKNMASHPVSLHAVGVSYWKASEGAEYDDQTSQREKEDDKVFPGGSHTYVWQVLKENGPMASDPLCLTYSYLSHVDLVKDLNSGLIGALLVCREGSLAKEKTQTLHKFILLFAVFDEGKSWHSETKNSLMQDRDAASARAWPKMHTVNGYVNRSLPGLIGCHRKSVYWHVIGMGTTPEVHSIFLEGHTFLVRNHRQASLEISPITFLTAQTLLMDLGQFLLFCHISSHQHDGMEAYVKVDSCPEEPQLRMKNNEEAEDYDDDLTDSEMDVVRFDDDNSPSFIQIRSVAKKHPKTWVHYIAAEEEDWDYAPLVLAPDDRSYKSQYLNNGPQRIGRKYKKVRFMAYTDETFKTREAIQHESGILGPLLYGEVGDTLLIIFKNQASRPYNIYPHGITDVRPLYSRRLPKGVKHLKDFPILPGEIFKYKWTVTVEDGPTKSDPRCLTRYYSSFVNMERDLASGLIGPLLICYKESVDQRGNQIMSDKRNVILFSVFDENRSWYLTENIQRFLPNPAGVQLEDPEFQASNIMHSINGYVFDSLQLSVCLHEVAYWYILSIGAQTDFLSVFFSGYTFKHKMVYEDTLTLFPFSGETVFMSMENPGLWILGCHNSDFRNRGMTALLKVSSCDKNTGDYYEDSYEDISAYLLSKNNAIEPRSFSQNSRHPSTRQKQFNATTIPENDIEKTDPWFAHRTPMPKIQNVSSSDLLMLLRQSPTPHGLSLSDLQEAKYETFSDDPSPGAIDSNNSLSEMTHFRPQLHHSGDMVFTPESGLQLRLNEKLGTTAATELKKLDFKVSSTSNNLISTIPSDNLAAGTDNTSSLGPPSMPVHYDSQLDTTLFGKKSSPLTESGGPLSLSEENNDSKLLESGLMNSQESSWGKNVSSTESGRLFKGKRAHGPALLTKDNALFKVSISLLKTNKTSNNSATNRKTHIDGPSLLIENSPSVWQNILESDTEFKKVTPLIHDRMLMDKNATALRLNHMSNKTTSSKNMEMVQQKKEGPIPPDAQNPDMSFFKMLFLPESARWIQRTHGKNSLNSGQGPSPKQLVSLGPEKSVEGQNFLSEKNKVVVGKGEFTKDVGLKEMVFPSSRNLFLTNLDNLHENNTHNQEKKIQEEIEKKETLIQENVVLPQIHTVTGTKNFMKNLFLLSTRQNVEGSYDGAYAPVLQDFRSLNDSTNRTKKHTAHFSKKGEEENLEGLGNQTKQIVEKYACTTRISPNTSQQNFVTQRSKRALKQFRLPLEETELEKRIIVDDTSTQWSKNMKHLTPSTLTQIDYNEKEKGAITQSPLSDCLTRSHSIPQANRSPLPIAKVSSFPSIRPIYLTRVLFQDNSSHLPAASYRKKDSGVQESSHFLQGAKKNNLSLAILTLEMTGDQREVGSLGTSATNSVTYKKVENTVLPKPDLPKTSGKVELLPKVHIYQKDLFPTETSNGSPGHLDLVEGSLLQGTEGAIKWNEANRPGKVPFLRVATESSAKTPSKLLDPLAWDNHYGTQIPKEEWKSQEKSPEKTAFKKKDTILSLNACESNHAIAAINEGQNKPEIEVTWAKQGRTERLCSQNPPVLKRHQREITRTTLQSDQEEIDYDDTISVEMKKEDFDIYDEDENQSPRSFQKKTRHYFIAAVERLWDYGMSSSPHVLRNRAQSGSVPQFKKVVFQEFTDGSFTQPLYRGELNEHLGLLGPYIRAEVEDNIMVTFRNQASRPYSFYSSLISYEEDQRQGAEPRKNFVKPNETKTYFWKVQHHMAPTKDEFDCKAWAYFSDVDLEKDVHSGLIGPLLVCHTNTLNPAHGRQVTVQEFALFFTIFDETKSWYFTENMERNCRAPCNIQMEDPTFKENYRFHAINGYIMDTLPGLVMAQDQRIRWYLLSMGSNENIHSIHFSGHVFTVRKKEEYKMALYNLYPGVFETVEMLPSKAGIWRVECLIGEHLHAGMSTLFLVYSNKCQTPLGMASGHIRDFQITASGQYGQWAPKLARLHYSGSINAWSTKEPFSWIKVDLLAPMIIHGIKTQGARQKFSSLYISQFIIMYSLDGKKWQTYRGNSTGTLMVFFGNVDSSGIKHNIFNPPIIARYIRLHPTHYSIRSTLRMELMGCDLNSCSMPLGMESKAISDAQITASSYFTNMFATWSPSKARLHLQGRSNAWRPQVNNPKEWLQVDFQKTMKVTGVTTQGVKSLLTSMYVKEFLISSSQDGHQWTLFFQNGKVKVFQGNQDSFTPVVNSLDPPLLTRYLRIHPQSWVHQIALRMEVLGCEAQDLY

With human monoclonal antibody BO2C11 the clotting time as measured by aPTT was 110 s.

Source: WO2001004269A1
